# Where a name gives a salt, the structure may show the parent alone.
# By UniProt entry, the sequences of proteins in these tests, tags left out. Chains listed by the source or under a name are the forms on record and can include a tag or linker.
# UniProt P98170, other isoform, or with tags, fused parts or gaps, stated change not applied: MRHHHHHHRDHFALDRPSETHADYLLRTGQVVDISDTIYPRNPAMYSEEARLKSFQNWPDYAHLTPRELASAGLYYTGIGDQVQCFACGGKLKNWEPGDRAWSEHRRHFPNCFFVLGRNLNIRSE
# UniProt P98170, other isoform, or with tags, fused parts or gaps: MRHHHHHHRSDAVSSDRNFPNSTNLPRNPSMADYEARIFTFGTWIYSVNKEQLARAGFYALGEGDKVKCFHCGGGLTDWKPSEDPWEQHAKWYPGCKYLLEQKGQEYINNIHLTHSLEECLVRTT
# Key:
# BIR2 domain of XIAP = BIR2 domain of XIAP (Homo sapiens (Human), UniProt P98170, C202A/C213G); assay: TR-FRET assay for BIR2: inhibition of binding of XIAP BIR2 domain to Peptide A (SMAC-derived peptide); settings: 6× His-tagged BIR2 domain (aa 124-240 of XIAP) 10 nM, Peptide A 20 nM
# Method: TR-FRET Assay for BIR2 and BIR3
# The peptides were labeled with the fluorescent tags FITC or TAMRA and Kd values were determined by fluorescence polarization assay. […] The peptide sequence was derivatized with biotin to provide […]-(ε-biotin)-OH 1:2 TFA as the substrate for the TR-FRET assay.
# The XIAP protein sequence was obtained from the SWISS-PROT protein sequence database and the BIR2 and BIR3 domains were derived from that. The sequence of the BIR2 domain used for the TR-FRET assay is […].
# Time-resolved fluorescence resonance energy transfer (TR-FRET) signals were measured 1 hour later at room temperature. Test compound potency was assessed at 10 serially diluted concentrations. Percentage of inhibition at each concentration was determined to generate an IC50 value for each test compound.
# BIR3 domain of XIAP = BIR3 domain of XIAP (Homo sapiens (Human), UniProt P98170); assay: TR-FRET assay for BIR3: inhibition of binding of XIAP BIR3 domain to Peptide A (SMAC-derived peptide); settings: 6× His-tagged BIR3 domain (aa 241-356 of XIAP) 10 nM, Peptide A 20 nM
SMILES,IC50 (BIR2 domain of XIAP) [nM],IC50 (BIR3 domain of XIAP) [nM]
"CN[C@@H](C)C(=O)N[C@H]1CN(C(=O)c2cccc(C(=O)N3C[C@H](NC(=O)[C@H](C)NC)C(=O)N(Cc4c(OC)ccc5cc(Br)ccc45)c4ccccc43)c2)c2ccccc2N(Cc2c(OC)ccc3cc(Br)ccc23)C1=O [Ex 6, (2S)-N-[(3S)-5-[(6-Bromo-2-methoxy-1-naphthyl)methyl]-1-[3-[(3S)-5-[(6-bromo-2-methoxy-1-naphthyl)methyl]-3-[[(2S)-2-(methylamino)propanoyl]amino]-4-oxo-2,3-dihydro-1,5-benzodiazepine-1-carbonyl]benzoyl]-4-oxo-2,3-dihydro-1,5-benzodiazepin-3-yl]-2-(methylamino)propanamide dihydrochloride]",0.899,> 5480
"CN[C@@H](C)C(=O)N[C@H]1CN(C(=O)c2ccc(C(=O)N3C[C@H](NC(=O)[C@H](C)NC)C(=O)N(Cc4c(OC)ccc5ccccc45)c4ccccc43)cc2)c2ccccc2N(Cc2c(OC)ccc3ccccc23)C1=O [Ex 25, (2S)-N-[(3S)-5-[(2-Methoxy-1-naphthyl)methyl]-1-[4-[(3S)-5-[(2-methoxy-1-naphthyl)methyl]-3-[[(2S)-2-(methylamino)propanoyl]amino]-4-oxo-2,3-dihydro-1,5-benzodiazepine-1-carbonyl]benzoyl]-4-oxo-2,3-dihydro-1,5-benzodiazepin-3-yl]-2-(methylamino)propanamide dihydrochloride]",0.452,> 5480

# Source: patent US9409888B2, “Dimeric compounds” (priority 2012, dated 2016)
